IC50 data for 1 molecule are collected here from publication PMC5225454, “A Comprehensive Evaluation of the Activity and Selectivity Profile of Ligands for RGD-binding Integrins” (Scientific Reports, 2017).

Amino acid sequences for entries named in this document (tags omitted). Residues count along the entry.
UniProt P06756, 31-992 limits assumed: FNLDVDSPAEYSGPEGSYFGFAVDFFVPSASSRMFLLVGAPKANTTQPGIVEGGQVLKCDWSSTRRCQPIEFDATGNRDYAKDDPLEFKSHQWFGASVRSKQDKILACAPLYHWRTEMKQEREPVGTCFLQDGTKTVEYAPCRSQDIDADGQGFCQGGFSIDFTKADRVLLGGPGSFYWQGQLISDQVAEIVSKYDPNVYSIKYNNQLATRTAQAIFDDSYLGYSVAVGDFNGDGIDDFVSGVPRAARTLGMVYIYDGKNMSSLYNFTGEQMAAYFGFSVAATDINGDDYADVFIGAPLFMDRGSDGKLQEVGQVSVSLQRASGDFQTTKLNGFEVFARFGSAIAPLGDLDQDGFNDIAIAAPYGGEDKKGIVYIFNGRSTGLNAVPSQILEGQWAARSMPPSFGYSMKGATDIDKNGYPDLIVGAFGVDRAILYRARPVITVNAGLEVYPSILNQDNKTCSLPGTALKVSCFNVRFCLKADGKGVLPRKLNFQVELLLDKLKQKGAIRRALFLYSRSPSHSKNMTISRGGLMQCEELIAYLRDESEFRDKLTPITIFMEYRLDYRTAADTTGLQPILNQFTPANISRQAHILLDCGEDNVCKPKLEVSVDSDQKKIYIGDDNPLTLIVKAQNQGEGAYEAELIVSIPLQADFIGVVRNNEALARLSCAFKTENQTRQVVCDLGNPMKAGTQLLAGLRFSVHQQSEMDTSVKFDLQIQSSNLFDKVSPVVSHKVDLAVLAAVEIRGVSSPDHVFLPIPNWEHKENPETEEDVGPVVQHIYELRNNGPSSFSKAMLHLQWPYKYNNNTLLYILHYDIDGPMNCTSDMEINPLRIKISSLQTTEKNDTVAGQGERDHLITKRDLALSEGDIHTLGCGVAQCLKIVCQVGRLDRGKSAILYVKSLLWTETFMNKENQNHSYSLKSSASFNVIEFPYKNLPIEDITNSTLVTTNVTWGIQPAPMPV
UniProt P06756, 31-1048: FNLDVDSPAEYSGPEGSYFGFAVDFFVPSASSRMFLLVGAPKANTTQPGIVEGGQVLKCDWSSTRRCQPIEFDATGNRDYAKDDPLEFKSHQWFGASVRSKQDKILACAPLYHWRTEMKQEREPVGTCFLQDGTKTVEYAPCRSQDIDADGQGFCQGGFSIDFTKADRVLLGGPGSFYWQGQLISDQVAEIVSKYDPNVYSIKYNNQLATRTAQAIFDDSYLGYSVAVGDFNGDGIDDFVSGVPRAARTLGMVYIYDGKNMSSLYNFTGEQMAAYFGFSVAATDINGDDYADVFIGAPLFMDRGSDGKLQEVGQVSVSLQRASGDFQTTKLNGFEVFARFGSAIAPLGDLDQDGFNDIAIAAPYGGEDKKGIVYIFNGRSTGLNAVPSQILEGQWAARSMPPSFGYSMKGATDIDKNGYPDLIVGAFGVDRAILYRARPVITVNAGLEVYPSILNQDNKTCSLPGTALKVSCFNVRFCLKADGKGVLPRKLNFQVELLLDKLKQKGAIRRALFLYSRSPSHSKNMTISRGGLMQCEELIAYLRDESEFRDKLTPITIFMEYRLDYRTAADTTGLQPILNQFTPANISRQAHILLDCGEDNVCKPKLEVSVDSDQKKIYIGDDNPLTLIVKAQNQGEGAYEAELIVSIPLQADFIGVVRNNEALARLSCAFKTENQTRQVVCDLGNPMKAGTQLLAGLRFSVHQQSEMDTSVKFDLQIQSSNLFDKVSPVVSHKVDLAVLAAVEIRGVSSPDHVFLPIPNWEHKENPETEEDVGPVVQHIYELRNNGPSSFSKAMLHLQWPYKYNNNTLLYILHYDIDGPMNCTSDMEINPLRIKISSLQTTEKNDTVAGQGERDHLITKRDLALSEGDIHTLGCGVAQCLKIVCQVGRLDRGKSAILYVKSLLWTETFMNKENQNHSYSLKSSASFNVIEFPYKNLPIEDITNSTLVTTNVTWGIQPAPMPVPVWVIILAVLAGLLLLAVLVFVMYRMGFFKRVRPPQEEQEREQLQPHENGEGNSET
UniProt P18564, 22-707 limits assumed: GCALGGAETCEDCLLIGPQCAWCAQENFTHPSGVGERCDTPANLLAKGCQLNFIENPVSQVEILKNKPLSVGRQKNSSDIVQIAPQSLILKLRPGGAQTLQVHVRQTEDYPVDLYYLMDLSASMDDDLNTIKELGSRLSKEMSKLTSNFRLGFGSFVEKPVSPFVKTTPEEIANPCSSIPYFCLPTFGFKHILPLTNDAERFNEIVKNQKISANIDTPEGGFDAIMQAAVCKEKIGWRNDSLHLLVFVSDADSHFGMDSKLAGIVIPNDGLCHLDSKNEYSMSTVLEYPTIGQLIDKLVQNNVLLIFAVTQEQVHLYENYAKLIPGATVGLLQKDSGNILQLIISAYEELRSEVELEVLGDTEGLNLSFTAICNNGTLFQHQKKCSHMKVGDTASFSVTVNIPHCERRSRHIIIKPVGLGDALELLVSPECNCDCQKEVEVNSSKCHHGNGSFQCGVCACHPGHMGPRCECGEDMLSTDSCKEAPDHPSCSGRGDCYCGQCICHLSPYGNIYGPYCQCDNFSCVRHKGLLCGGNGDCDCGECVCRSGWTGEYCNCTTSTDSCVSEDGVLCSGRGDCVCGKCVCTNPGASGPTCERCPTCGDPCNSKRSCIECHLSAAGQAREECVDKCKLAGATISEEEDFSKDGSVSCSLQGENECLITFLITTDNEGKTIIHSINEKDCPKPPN
UniProt P26012, 43-684 limits assumed: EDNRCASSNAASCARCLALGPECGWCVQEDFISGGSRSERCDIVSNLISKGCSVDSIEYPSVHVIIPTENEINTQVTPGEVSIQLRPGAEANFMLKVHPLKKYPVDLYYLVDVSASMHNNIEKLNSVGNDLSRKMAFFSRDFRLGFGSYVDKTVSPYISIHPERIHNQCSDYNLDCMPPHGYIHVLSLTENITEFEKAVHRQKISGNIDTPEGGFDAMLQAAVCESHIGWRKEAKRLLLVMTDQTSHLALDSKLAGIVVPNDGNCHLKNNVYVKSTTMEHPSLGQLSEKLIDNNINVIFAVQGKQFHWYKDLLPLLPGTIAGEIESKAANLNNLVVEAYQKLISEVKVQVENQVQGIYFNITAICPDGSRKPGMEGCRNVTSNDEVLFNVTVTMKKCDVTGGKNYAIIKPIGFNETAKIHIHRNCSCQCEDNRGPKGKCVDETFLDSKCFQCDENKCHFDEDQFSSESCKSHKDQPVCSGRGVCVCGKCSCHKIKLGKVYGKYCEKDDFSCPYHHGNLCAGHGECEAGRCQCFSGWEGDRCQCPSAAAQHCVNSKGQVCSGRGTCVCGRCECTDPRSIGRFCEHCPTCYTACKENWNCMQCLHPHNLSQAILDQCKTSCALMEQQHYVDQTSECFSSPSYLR
UniProt P05106, 27-718 limits assumed: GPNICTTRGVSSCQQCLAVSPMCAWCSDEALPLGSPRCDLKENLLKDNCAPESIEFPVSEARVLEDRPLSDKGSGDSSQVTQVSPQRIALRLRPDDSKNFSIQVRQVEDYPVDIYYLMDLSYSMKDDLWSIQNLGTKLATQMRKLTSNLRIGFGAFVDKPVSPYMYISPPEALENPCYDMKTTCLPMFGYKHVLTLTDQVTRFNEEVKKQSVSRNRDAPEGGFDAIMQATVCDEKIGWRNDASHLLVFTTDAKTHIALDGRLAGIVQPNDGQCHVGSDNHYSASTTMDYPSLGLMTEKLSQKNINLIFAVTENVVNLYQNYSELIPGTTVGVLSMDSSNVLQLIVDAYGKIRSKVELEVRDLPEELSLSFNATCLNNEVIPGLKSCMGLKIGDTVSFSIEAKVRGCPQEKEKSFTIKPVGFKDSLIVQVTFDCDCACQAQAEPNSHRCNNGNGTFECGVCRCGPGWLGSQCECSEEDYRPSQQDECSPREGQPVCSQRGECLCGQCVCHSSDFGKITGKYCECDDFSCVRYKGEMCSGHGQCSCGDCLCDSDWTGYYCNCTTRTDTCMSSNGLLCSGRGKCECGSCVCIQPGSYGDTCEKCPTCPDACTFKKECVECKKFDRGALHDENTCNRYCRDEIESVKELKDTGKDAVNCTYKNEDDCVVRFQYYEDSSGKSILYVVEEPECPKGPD
UniProt P05106, 27-788: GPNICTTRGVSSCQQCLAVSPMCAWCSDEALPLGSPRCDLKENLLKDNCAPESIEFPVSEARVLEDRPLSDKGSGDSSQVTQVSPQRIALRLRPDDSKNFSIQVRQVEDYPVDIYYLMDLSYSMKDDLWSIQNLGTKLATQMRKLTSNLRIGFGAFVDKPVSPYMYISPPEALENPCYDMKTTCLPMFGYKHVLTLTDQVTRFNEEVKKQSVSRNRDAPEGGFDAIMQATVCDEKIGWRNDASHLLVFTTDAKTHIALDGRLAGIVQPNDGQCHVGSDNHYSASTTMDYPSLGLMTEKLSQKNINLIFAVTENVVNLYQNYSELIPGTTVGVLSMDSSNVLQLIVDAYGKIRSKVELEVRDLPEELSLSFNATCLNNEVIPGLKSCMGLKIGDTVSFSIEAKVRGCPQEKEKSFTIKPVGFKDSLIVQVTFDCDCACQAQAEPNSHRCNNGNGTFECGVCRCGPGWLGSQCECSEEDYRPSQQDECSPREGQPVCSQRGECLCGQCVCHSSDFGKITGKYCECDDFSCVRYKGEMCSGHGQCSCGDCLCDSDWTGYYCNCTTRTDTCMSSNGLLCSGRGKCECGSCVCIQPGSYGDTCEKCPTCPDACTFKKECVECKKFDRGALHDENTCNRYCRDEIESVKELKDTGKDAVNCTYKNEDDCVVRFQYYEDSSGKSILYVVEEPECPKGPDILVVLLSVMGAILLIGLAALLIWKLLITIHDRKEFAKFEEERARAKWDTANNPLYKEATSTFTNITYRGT
UniProt P08514, 32-1039: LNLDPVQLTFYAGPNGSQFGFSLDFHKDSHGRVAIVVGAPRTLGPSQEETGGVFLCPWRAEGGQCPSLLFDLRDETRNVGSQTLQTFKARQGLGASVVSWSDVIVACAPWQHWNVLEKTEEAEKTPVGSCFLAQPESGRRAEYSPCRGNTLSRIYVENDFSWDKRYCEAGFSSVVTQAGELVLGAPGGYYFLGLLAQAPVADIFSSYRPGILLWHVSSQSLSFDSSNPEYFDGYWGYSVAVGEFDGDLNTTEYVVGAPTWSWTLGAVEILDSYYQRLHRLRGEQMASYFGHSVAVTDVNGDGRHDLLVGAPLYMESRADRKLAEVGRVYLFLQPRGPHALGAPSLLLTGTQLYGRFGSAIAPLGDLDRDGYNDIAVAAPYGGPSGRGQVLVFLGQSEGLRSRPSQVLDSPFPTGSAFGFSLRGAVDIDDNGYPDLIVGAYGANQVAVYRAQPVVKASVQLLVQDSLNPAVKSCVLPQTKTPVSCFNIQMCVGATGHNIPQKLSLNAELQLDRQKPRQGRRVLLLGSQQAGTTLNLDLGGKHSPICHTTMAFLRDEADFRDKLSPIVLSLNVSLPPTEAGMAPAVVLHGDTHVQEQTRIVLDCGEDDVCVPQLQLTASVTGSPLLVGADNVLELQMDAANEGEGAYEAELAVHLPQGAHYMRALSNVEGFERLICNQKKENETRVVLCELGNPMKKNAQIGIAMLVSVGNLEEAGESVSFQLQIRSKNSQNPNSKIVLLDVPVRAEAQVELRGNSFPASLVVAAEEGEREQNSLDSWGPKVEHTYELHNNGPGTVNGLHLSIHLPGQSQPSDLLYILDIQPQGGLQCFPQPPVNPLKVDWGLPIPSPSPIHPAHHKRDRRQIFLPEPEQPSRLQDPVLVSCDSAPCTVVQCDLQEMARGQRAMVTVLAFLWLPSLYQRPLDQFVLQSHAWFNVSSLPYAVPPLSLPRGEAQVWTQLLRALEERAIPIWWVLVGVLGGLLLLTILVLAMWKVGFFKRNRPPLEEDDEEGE
UniProt P18084, 24-799: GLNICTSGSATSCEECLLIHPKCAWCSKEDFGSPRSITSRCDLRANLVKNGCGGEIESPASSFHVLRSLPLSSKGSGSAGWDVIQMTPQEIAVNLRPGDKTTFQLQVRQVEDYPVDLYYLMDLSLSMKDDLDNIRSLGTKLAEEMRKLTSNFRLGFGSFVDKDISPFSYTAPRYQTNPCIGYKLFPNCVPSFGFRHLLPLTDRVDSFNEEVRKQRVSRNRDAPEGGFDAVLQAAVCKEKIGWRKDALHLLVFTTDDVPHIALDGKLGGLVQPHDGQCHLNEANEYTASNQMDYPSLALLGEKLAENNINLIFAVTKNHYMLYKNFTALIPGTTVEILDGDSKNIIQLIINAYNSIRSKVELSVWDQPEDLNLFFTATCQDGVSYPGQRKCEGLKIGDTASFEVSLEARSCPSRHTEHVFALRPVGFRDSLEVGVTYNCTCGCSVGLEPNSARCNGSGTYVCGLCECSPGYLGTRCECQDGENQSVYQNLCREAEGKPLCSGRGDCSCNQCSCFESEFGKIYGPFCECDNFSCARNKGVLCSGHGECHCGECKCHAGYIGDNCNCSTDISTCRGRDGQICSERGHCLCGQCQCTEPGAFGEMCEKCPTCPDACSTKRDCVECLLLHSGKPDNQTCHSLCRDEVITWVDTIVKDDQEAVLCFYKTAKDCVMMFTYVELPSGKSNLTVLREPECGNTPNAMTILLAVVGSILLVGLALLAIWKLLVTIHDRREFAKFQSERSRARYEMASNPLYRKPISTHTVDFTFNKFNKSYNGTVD

Common to all, as to conditions: referenced to internal standard
For one assay, the target named is T1, human αvβ6-Integrin (Homo sapiens, UniProt P06756+P18564).
T1 construct: purchased R&D
Nature of the assay: ELISA-like solid-phase binding assay, soluble integrin αvβ6 vs coated LAP (TGF-β). (In general: ELISA stands for enzyme-linked immunosorbent assay.)

A further assay addresses T2, human αvβ8-Integrin (Homo sapiens, UniProt P06756+P26012).
T2 construct: purchased R&D
Nature of the assay: ELISA-like solid-phase binding assay, soluble integrin αvβ8 vs coated LAP (TGF-β).

Another assay has as its target T3, human αvβ3-integrin (Homo sapiens, UniProt P05106+P06756).
T3 construct: purchased R&D
Nature of the assay: ELISA-like solid-phase binding assay, soluble integrin αvβ3 vs coated vitronectin.

The target of assay [1] is T4, human platelet integrin αIIbβ3 (Homo sapiens, UniProt P05106+P08514).
T4 construct: purchased VWR
Nature of the assay: ELISA-like solid-phase binding assay, soluble integrin αIIbβ3 vs coated fibrinogen.

For a further assay, the target named is T5, human αvβ5-integrin (Homo sapiens, UniProt P06756+P18084).
T5 construct: purchased Millipore
The experiment in a line: ELISA-like solid-phase binding assay, soluble integrin αvβ5 vs coated vitronectin.

Consider `N=C(N)NCCC[C@H](NC(=O)CN)C(=O)NCC(=O)N[C@@H](CC(=O)O)C(=O)N[C@@H](CO)C(=O)O` [GRGDS], for which the IC50 was 1480 ± 162 nM at human αvβ6-Integrin; above 10000 nM at human αvβ8-Integrin; 28 ± 3 nM at human αvβ3-integrin; above 10000 nM in assay [1]; 260 ± 42 nM at human αvβ5-integrin.

The term IC50 denotes the midpoint of a concentration-inhibition curve.
